Experimental data as given in US20080138291A1, “Sulfonamide Derivatives Having Carbonic Anhydrase Inhibiting Activity and their Use as Therapeutic and Diagnostic Agents” (UNION LIFE SCIENCES LTD., priority 2005, published 2008).
pKi: −log10 of the molar value.

Protein sequences, listed by entry. Tags and fused reporters are not part of them. Residues count along the entry.
UniProt P00915, whole entry: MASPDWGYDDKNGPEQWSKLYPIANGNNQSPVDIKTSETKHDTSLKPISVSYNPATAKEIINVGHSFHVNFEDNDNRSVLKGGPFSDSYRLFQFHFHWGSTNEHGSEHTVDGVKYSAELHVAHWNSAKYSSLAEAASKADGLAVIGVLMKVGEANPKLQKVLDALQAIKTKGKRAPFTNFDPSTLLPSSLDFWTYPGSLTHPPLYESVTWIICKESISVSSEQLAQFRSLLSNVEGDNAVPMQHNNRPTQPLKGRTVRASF
UniProt O43570, 30-289 limits assumed: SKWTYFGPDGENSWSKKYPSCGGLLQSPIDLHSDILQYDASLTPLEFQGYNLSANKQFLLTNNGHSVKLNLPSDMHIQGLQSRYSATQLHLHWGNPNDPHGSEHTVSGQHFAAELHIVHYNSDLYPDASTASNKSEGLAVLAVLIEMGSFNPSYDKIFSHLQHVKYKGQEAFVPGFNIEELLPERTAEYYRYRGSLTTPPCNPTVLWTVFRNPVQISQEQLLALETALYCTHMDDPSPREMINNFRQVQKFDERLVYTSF

Legend:
hCA I = hCA I (Homo sapiens, UniProt P00915); experiment: CA inhibition, CO2 hydration method, isozyme I; type: biochemical; conditions: read-out: KI hCA I, Table 2, human cloned isozyme
hCA II = hCA II (Homo sapiens, UniProt P00918); experiment: CA inhibition, CO2 hydration method, isozyme II; type: biochemical; conditions: read-out: KI hCA II, Table 2, human cloned isozyme
hCA IX = hCA IX (Homo sapiens, UniProt Q16790); experiment: CA inhibition, CO2 hydration method, isozyme IX (catalytic domain); type: biochemical; conditions: read-out: KI hCA IX, Table 2, catalytic domain of human cloned isozyme
hCA XII = hCA XII (Homo sapiens, UniProt O43570)

NS(=O)(=O)c1ccc(NC(=O)Nc2ccc(-c3c4ccc(=O)cc-4oc4cc(O)ccc34)c(C(=O)O)c2)c(Br)c1
pKi (hCA I): 5.89 | pKi (hCA II): 7.39 | pKi (hCA IX): 7.70 | pKi (hCA XII): 8.05
